Test results published in patent US20260151384A1, “ISOQUINOLINE DERIVATIVES AS PROTEIN DEGRADERS, E7 DEGRADERS, ANTIVIRALS, TUMOR THERAPEUTICS AND IMMUNE SUPPRESSIVES” (priority 2022, published 2026).

Chains of the proteins cited; added tags and fusions are not shown. Lines headed by an entry give the natural chain unless they say otherwise; changes in a name come on top.
UniProt P03129: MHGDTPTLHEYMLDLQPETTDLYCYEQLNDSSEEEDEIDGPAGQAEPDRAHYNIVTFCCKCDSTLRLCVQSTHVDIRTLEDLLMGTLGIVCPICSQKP

Biological target: HPV16 E7 protein (Human papillomavirus type 16, UniProt P03129)
Assay: Western blot of E7 steady state level in CaSki cells
Assay type: cell-based
Conditions: 6 h treatment, 10 μM & 5 μM
Procedure: Reagents for Extract preparation and Western Blotting: Extraction Buffer: 2.5× (Tris 0.25M pH6.8, Glycerol 50%, SDS 10%), Gels: 4-12% gradient gels (Bolt® 4-12% Bis-Tris Plus Gel). MES Buffer: 50 mM MES, 50 mM Tris Base, 0.1% SDS, 1 mM EDTA, pH 7.3, Blotting membrane: Nitrocelulose 0.2 μm (Whatman Protran #10401394), 3MM filter paper (e.g. Whatman 3MM Chr, #3030917). Western Detection Reagents: WB Wash Buffer 1× (TBET): 20 mM Tris, 150 mM NaCl, 0.125% Tween20, pH 7.8; skim-milk powder (less than 0.15% fat content). Phosphate buffered saline (PBS) 1×: prepared as 1 L add 8 g sodium chloride (NaCl), 0.2 g potassium chloride (KCl), 1.44 g sodium phosphate, dibasic (Na2HPO4) and 0.24 g potassium phosphate, monobasic (KH2PO4) to 1 L dH2O, pH adjusted to 7.2.
B) For cells in cell culture the following procedure for the preparation of a total cell extract is used. Freshly seeded cells are grown for 24 hours to obtain 65-75% confluency (corresponds for CaSki cells to a plating of approx. 2×10^6 cells/10 cm Ø cell culture dish). Cell culture dishes with medium are out on ice for 5 minutes. […]
Dilute secondary anti-mouse HRP antibody in WB Blocking Buffer according to manufacturer instruction (e.g. CST Anti mouse IgG HRP-linked Ab, #7076, 1:3000). […] The membranes are developed using standard chemo luminescence (ECL) detection systems following imaging with Licor or Viber devices. […]

CN1CCC(CN2C(=O)c3ccccc3[C@H](C(=O)Nc3cccc(N4CCN(C)CC4)c3)[C@H]2c2ccc(C(F)(F)F)cc2)CC1 [VSP035, (3S,4S)—N-[3-(4-methylpiperazin-1-yl)phenyl]-2-[(1-methylpiperidin-4-yl)methyl]-1-oxo-3-[4-(trifluoromethyl)phenyl]-1,2,3,4-tetrahydroisoquinoline-4-carboxamide]
decrease in the HPV16 E7 protein compared with kinase inhibitors (western blot): strongest decrease
